# Reference: US20090263341A1, “SOFT ANTICHOLINERGIC ESTERS” (priority 2005, published 2009)
# Tested on: guinea pig ileum (M3 muscarinic receptors)
# Experiment: Guinea pig ileum contraction assay, pA2 against carbachol
# Conditions: carbachol as agonist, 4-6 strips, mean ± SD
row,Compound,pA2
1,COC(=O)C[N+]1(C)CCC(OC(=O)C(O)(c2ccccc2)C2CCCC2)C1.[Br-] (racemic),7.90 ± 0.13
2,C[N@+]1(CC(=O)[O-])CC[C@H](OC(=O)[C@](O)(c2ccccc2)C2CCCC2)C1,7.15 ± 0.12
3,C[N@@+]1(CC(=O)[O-])CC[C@@H](OC(=O)[C@@](O)(c2ccccc2)C2CCCC2)C1,5.14 ± 0.38
4,C[N@+]1(CC(=O)[O-])CC[C@@H](OC(=O)[C@](O)(c2ccccc2)C2CCCC2)C1,7.45 ± 0.21
5,C[N@@+]1(CC(=O)[O-])CC[C@H](OC(=O)[C@@](O)(c2ccccc2)C2CCCC2)C1,<4
6,C[N+]1(CC(=O)[O-])CCC(OC(=O)C(O)(c2ccccc2)C2CCCC2)C1 (centres unmarked),6.42 ± 0.30
7,C[N@+]1(CC(=O)[O-])CC[C@H](OC(=O)[C@@](O)(c2ccccc2)C2CCCC2)C1,5.03 ± 0.26
8,COC(=O)C[N+]1(C)CCC(OC(=O)[C@](O)(c2ccccc2)C2CCCC2)C1.[Br-] (some centres unmarked),8.31 ± 0.05
9,C[N@@+]1(CC(=O)[O-])CC[C@@H](OC(=O)[C@](O)(c2ccccc2)C2CCCC2)C1,6.32 ± 0.23
10,C[N+]1(CC(=O)[O-])CCC(OC(=O)[C@](O)(c2ccccc2)C2CCCC2)C1 (some centres unmarked),7.20 ± 0.19

# Same assay, conditions: carbachol as agonist, 4-6 strips, mean ± SD, listed as 2R1′R3′R-GA
row,Compound,pA2
1,C[N@@+]1(CC(=O)[O-])CC[C@@H](OC(=O)[C@](O)(c2ccccc2)C2CCCC2)C1,6.32
